Assay results reported in article PMC7723054.
The other results are listed elsewhere or left out.

B1: hsa-mir-124-3 (structured_RNA)
RNA: GGGACAAUCAUCCUUCUAGGACGAGACAGGUGUACGAAGUUUCAGCCUUGAUUUAAUGUCUAUACAAUUAAGGCUGAAGCUUCGUGCAC
B2: hsa-mir-500a (structured_RNA)
RNA: GGGAAUUGGGGACCCGUGUCGAACCAAAGGUGUACGAAGUUUCAGCGAGAGUGCUGUCUGAAUGCAAUGCGCUGAAGCUUCGUGCAC
B3: hsa-mir-657 (structured_RNA)
RNA: GGGAAGUCUGAAAGGACGCAGCACCAGUGGUGUACGAAGUUUCAGCGUCCGGGUGGGUUCCGGCAGCUGAAGCUUCGUGCAC
B4: hsa-mir-6756 (structured_RNA)
RNA: GGGAAUGUCAACCGGGGCAAAUGAUGACGGUGUACGAAGUUUCAGCGGGGCUGAGGCUGAGUCUUCCUCCCGCUGAAGCUUCGUGCAC
B5: hsa-mir-4773-1 (structured_RNA)
RNA: GGGACCACUGAGAGGUGCCCUUCGUAUAGGUGUACGAAGUUUCAGCUCUGCUUUAUUUCAUCAAAGCAGAGCUGAAGCUUCGUGCAC
B6: hsa-mir-1260b (structured_RNA)
RNA: GGGAACAUCGCGGGUCCCUCAAUCGAACGGUGUACGAAGUUUCAGCCCAUUAUUGCUACUGUUCAGCAGGUGCUGCUGGUGGUGAUGGGCUGAAGCUUCGUGCAC
B7: hsa-mir-4659a (structured_RNA)
RNA: GGGAAUUCUAAGGCGGGUCAGCUUGCAAGGUGUACGAAGUUUCAGCGAAAACUUUGGAGAAAAAUUUUCGCUGAAGCUUCGUGCAC
B8: NEAT1_ParasoR_ID21 (structured_RNA)
RNA: GGGACCAACAACUCUAAUCGUCGCUCACGGUGUACGAAGUUUCAGCAGGUAUAAUUUUUUAAAUUGCUUGCUGAAGCUUCGUGCAC
B9: hsa-mir-4320 (structured_RNA)
RNA: GGGAUAAGGCCCUACGCACAUAAGUGCAGGUGUACGAAGUUUCAGCUUUCAGAUAACUCGGGAGCUGAAGCUUCGUGCAC
B10: hsa-mir-4730 (structured_RNA)
RNA: GGGAACUCAAAUGCACCCCGUCACAGAGGGUGUACGAAGUUUCAGCGCCAGAUGCUGAGCGAUGGCGCUGAAGCUUCGUGCAC
B11: hsa-mir-3180-4 (structured_RNA)
RNA: GGGACAGGAUACCAAUGUUUACAGAUCGGGUGUACGAAGUUUCAGCGGAGGCCCCGCUCUGCUGCCGACCCUGUGGAGCGGAGGGUGAAGCCUCCGCUGAAGCUUCGUGCAC
B12: hsa-mir-4490 (structured_RNA)
RNA: GGGAUUAGUAGGCCACGCCUUGUGAUGGGGUGUACGAAGUUUCAGCCAAAGACCAGAACUUAAUGGUCUCUGGCUGAAGCUUCGUGCAC
B13: hsa-mir-4679-2 (structured_RNA)
RNA: GGGAGCUCACAGCGUCCAAUCGGUCAACGGUGUACGAAGUUUCAGCUGCUUUUUGUUUCUAACAAAGCAGCUGAAGCUUCGUGCAC
B14: hsa-mir-4261 (structured_RNA)
RNA: GGGAAAUUUUAGAGAACCGCGCGGAGGUGGUGUACGAAGUUUCAGCUCCUGAGACAGGAGCUGAAGCUUCGUGCAC
B15: hsa-mir-1909 (structured_RNA)
RNA: GGGACGCCAGUAUGCAAAUUAAGUGCUCGGUGUACGAAGUUUCAGCUGCCCUGGGGCCGUCCCUGCGCAGCUGAAGCUUCGUGCAC
B16: hsa-mir-548aw (structured_RNA)
RNA: GGGAUCGUAUAAGGUGUUACCAUGGCCCGGUGUACGAAGUUUCAGCGGUUUUUACCAUUAAAACCGCUGAAGCUUCGUGCAC
B17: hsa-mir-4518 (structured_RNA)
RNA: GGGACAGGCGCCGCGAUCUAUAGACUUAGGUGUACGAAGUUUCAGCAUGUCUGCUGGGGAACCGGGGCUGCUGAAGCUUCGUGCAC
B18: hsa-mir-4292 (structured_RNA)
RNA: GGGCAUUCAAACCCUAAGUGUGGCUAUGGGUGUACGAAGUUUCAGCGAGGCCAGAGGUGCCCGCUGAAGCUUCGUGCAC
B19: hsa-mir-4532 (structured_RNA)
RNA: GGGAGCUGCGUACCCUACUACGUAAACGGGUGUACGAAGUUUCAGCGGCGGUGAAGCUCCGCUGAAGCUUCGUGCAC
B20: hsa-mir-4738 (structured_RNA)
RNA: GGGAGAAACGCAUCCCGUCGCUAAAAUGGGUGUACGAAGUUUCAGCUUCAUAGGGAAGCCUUUCCAUGAAGCUGAAGCUUCGUGCAC
B21: hsa-mir-4658 (structured_RNA)
RNA: GGGAUCAUGCUGGGUUCCUUAGGCGUCGGGUGUACGAAGUUUCAGCCCACUACCGGUGAGCUGAAGCUUCGUGCAC
B22: hsa-mir-8077 (structured_RNA)
RNA: GGGAAAGCAAACGAAAGCCUGUUAGCCUGGUGUACGAAGUUUCAGCAGUCCAAAGGAAAGGGCUGCUGAAGCUUCGUGCAC
B23: hsa-mir-548i-3_548i-2_548i-1 (structured_RNA)
RNA: GGGACGGGGACGUCUUAAGAACUCGUGGGGUGUACGAAGUUUCAGCUGCCAUUAAAAGUAAUGGCAGCUGAAGCUUCGUGCAC
B24: hsa-mir-564 (structured_RNA)
RNA: GGGAACGCUAGGGCUAACGCUUAAACCGGGUGUACGAAGUUUCAGCAGGCAACAUGGCCGAGAGGCCGGGGCCUGCUGAAGCUUCGUGCAC
B25: hsa-mir-6069 (structured_RNA)
RNA: GGGAAAUUAGGGUCAUCUAGAAAUCCGUGGUGUACGAAGUUUCAGCCCCUGCCCAGUGCAGGAGGCUGAAGCUUCGUGCAC
B26: hsa-mir-320d-2 (structured_RNA)
RNA: GGGAAAUCUGUGCAGGCUCAACCCCUUGGGUGUACGAAGUUUCAGCUCUUCUUGGAGUCAGGAAAAGCUGAAGCUUCGUGCAC

target: T1, LIN28A (human?, UniProt Q9H9Z2 1-209); test: FOREST: bead pull-down of RNA structure library v1, barcode microarray; U1A/LIN28A: 20 mM HEPES pH 7.5, 80 mM KCl, 20 mM NaCl, 10% glycerol, 2 mM DTT, 0.1 ug/uL BSA, 4 C; BG4/CIRBP/DHX36: 10 mM Tris-HCl pH 7.5, 100 mM KCl (or LiCl),; high values mean tight binding
T1 sequence: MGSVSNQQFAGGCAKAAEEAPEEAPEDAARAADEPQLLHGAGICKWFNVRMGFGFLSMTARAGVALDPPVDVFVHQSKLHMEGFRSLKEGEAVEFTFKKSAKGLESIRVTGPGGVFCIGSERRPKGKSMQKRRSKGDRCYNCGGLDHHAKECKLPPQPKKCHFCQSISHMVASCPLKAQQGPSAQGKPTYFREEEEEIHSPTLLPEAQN

| Binder | binding signal [z-score] |
| --- | --- |
| B1 | -1.74 |
| B2 | -1.75 |
| B3 | -1.75 |
| B4 | -1.76 |
| B5 | -1.78 |
| B6 | -1.78 |
| B7 | -1.79 |
| B8 | -1.8 |
| B9 | -1.81 |
| B10 | -1.81 |
| B11 | -1.81 |
| B12 | -1.82 |
| B13 | -1.83 |
| B14 | -1.83 |
| B15 | -1.83 |
| B16 | -1.83 |
| B17 | -1.84 |
| B18 | -1.85 |
| B19 | -1.85 |
| B20 | -1.87 |
| B21 | -1.87 |
| B22 | -1.88 |
| B23 | -1.88 |
| B24 | -1.88 |
| B25 | -1.89 |
| B26 | -1.89 |

target: T2, CIRBP (Homo sapiens, UniProt Q14011 1-172); test: as above
T2 sequence: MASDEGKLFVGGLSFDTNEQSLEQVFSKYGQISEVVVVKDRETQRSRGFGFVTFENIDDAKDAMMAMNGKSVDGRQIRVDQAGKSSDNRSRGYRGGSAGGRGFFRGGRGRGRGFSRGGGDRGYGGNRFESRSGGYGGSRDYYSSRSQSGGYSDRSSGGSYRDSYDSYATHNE

| Binder | binding signal [z-score] |
| --- | --- |
| B1 | -0.411 |
| B2 | -1.55 |
| B3 | -0.737 |
| B4 | -1.31 |
| B5 | -1.69 |
| B6 | 0.635 |
| B7 | -0.683 |
| B8 | -0.482 |
| B9 | -1.41 |
| B10 | -0.703 |
| B11 | -1.67 |
| B12 | -1.58 |
| B13 | -0.261 |
| B14 | -0.396 |
| B15 | -1.41 |
| B16 | -0.53 |
| B17 | -0.832 |
| B18 | -0.578 |
| B19 | -1.06 |
| B20 | 0.292 |
| B21 | -0.922 |
| B22 | 0.817 |
| B23 | -0.307 |
| B24 | -0.776 |
| B25 | -0.598 |
| B26 | 0.543 |

target: T3, DHX36 (Homo sapiens, UniProt Q9H2U1 1-1008); test: as above
T3 sequence: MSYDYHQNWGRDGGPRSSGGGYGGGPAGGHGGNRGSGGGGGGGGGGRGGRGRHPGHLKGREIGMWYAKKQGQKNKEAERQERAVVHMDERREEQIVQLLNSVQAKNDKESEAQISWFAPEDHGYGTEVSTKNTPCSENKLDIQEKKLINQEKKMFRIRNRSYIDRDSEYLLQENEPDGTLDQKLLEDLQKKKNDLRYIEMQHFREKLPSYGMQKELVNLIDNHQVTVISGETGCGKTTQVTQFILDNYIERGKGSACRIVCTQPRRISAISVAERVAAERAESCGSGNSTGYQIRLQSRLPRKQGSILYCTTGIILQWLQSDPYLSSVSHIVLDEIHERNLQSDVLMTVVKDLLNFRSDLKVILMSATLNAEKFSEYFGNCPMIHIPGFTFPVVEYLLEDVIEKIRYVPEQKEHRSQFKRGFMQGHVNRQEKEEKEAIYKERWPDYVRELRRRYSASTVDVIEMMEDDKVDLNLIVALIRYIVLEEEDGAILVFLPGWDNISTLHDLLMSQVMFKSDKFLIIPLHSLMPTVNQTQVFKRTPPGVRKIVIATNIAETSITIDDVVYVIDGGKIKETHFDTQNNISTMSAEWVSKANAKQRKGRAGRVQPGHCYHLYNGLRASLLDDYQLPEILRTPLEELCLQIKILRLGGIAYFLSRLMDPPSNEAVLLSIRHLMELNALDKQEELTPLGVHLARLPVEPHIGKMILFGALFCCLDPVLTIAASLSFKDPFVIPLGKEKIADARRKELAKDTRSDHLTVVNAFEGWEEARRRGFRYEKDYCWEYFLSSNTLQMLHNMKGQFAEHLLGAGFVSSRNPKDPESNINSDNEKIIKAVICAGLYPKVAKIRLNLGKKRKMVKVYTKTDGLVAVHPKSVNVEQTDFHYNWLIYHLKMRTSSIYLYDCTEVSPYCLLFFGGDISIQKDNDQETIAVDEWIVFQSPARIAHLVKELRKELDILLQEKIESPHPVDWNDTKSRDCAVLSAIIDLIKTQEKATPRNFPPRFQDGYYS

| Binder | binding signal [z-score] |
| --- | --- |
| B1 | -0.704 |
| B2 | -0.0743 |
| B3 | -1.4 |
| B4 | -1.35 |
| B5 | -1.91 |
| B6 | -1.08 |
| B7 | -0.758 |
| B8 | -0.766 |
| B9 | -1.25 |
| B10 | -0.826 |
| B11 | -0.768 |
| B12 | -0.936 |
| B13 | -0.661 |
| B14 | -0.498 |
| B15 | -0.441 |
| B16 | 0.475 |
| B17 | -0.945 |
| B18 | -0.636 |
| B19 | -0.464 |
| B20 | -0.259 |
| B21 | -1.6 |
| B22 | -1.02 |
| B23 | -0.141 |
| B24 | -0.262 |
| B25 | -0.681 |
| B26 | 0.02 |
